Values quoted from earlier work, collected in US20090202995A1, “MOLECULAR CARDIOTOXICOLOGY MODELING” (priority 2005, published 2009).

How the values were obtained:
heart tissue [1] = conditions: known designation used to train the model, at the dose, time and route of Table 3
heart tissue [2] = conditions: known designation used to train the model, at the dose, time and route of Table 3; remark: listed apart in the source

In the case of CC(N)C(O)c1ccccc1 (centres unmarked) [Phenylpropanolamine], the “Andrenergic Agonist” value (heart tissue [1]) is given as 1 and the “Myocardial Necrosis” value (heart tissue [2]) is given as 1.
